Values quoted from earlier work as cited in paper PMC9085562.

Protein sequences, listed by entry. Tags and fused reporters are not part of them. Residues count along the entry.
UniProt P06241, 79-146: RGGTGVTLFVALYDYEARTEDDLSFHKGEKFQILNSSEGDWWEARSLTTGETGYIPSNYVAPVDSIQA

Target: class I peptide

Kd: 180 nM
Substance: Fyn SH3 (from UniProt P06241)
